Laboratory results: patent publication US20040105895A1, “Monovalent-selective cation exchangers as oral sorbent therapy” (priority 2001, published 2004)

Test: Tolerability of sorbent-supplemented feed in rats (food intake, weight, stool, post-mortem)
Details: rat, in vivo

## zirconium-silicate [zirconium-silicate sorbent]
  Hemoccult / hemoglobin test of red spots in stool: negative
  gross post-mortem analysis: entirely normal
  histologic appearance of the mucosa of small bowel and large bowel: normal
